Key:
[1] = biological target: T1, [Fe2S2] cluster of ISP of R. capsulatus chromatophore membranes (Rhodobacter capsulatus, UniProt D5ANZ2+D5ANZ3); conditions: 100 μM inhibitor, 5 mM ascorbate; for gx (EPR g value): Table 6
T1 sequence (D5ANZ2 1-191): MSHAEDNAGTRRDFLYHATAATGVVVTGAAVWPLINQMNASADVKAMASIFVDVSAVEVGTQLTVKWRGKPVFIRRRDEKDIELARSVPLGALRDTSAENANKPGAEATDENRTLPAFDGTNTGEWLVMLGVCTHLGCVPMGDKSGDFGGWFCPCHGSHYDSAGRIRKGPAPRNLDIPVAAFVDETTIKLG
T1 sequence (D5ANZ3 1-437): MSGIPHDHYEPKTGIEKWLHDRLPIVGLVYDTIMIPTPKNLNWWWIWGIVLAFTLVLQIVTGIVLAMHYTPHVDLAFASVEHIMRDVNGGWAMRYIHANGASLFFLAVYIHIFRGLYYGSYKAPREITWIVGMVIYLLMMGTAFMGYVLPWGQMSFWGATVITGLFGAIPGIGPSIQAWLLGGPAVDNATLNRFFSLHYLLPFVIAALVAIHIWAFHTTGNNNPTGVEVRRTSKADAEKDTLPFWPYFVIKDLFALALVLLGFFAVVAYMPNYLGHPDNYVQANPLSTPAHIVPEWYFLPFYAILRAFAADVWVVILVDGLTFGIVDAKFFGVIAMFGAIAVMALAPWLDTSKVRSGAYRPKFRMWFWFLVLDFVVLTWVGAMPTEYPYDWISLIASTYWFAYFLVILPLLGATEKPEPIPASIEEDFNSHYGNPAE
T1 sequence (D5ANZ4 22-279 partner): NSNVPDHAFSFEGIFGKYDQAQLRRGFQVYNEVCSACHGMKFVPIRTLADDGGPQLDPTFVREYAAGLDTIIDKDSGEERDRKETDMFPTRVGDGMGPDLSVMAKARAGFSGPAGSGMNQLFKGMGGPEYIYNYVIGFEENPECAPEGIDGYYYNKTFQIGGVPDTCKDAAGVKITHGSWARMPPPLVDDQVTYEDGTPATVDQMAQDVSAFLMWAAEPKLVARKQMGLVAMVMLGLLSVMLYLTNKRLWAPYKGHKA

[2] = tested on: strain of yeast engineered with the G143A mutation; experiment: cross-resistance test on engineered yeast; conditions: G143A mutation responsible for fungicide resistance

| SMILES | gx transition (EPR) [1] | gy (EPR g value) [1] | gx (EPR g value) [1] | cross-resistance against yeast with G143A mutation [2] |
| --- | --- | --- | --- | --- |
| C/C=C(C)/C=C/C=C/[C@H](OC)[C@@H](C)[C@@H](OC)[C@@H](C)CCc1oc2c(O)c(OC)cc(OC)c2c(=O)c1C [Compound 2, stigmatellin] | 1.782 | 1.891 |  |  |
| COC(=O)CNC(=O)CCC/C=C\NC(=O)c1ccc(Cc2ccc(I)cc2)cc1 [Compound 16] |  |  | 1.793 |  |
| COC(=O)CNC(=O)/C=C\C/C=C\NC(=O)/C=C(C)/C=C/[C@H](C)[C@H](OC)[C@H](C)[C@H](/C=C/c1ccccc1)OC [Compound 8, crocacin A] |  |  |  | little or no cross-resistance |
| C[C@@]1(c2ccc(Oc3ccccc3)cc2)OC(=O)N(Nc2ccccc2)C1=O (racemic) [Compound 4, Famoxadone] |  | 1.903 | 1.786 |  |
| CO/C(=C/C(N)=O)[C@H](C)[C@H](/C=C/c1csc(-c2csc([C@@H](C)/C=C/C=C/C(C)C)n2)n1)OC [Compound 5, myxothiazole] |  | 1.901 | 1.771 |  |
| COC(=O)COc1ccc2oc(=O)n(Cc3ccc(Cc4ccc(I)cc4)cc3)c2c1 [Compound 19] |  | 1.897 | 1.808 |  |

Reference: article PMC2784635 (Bioorganic & medicinal chemistry, 2008)
